Reference: US10407440B2, “Therapeutic agent for motor disorders” (KYOWA HAKKO KIRIN CO., LTD., priority 2009, dated 2019)

Chains of the proteins cited; added tags and fusions are not shown.
UniProt P30542, whole entry: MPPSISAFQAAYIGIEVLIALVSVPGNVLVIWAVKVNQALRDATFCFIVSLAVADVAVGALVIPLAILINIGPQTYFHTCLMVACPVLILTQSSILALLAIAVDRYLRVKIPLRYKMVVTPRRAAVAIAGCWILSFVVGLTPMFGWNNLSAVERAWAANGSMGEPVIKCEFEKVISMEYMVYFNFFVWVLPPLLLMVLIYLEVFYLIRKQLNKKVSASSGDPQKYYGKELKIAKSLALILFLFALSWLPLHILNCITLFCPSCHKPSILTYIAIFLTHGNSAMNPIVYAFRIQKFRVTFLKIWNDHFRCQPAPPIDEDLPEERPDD

Legend:
[1] = target: T1, human adenosine A1 receptor (Homo sapiens, UniProt P30542); test: Adenosine A1 receptor binding test (3H-DPCPX binding); conditions: read-out: Inhibitory rate for human adenosine A1 receptor binding (3H-DPCPX binding)
T1 construct: host or cells: CHO cells (membranes)
Excerpt: Specifically, for example, human A1 receptor-expressing CHO cell membranes are used, and, as the labeled compound, for example, tritium-labeled DPCPX (1,3-dipropyl-8-cyclopentylxanthine) is used. The amount of non-specific binding can be determined by measuring the ^3H-DPCPX bound radioactivity in the presence of, for example, 100 μmol/L of R(−)-PIA((−)-N^6-2-phenylisopropyl adenosine).

[2] = target: T2, human adenosine A2A receptor (Homo sapiens, UniProt P29274); test: Adenosine A2A receptor binding test (3H-CGS21680 binding); conditions: compound at 100 nmol/L; Table 1, measured by MDS Pharma Services Inc.; read-out: Inhibitory rate for human adenosine A2A receptor binding (3H-CGS21680 binding)
T2 construct: host or cells: HEK-293 cells (membranes)
Excerpt: Specifically, for example, human recombinant receptors are expressed in HEK-293 cells.
The inhibitory rate can be calculated by the following equation.

inhibition at 0.1 µM [1] | inhibition at 0.1 µM [2] | SMILES
28% | 100% | O=C(Nc1nc(-c2ccco2)c(C(=O)c2ccccn2)s1)OC1CCOCC1 [(ID)]
14% | 92% | O=C(CN1CC=CCC1)Nc1nc(-c2ccco2)c(C(=O)C2CCOCC2)s1 [Compound (IA)]
4% | 98% | Cc1ncc(C(=O)Nc2nc(-c3ccco3)c(C(=O)C3CCOCC3)s2)cn1 [Compound (IB)]

SMILES | inhibition at 0.1 µM [1] | inhibition at 0.1 µM [2]
Cc1ccc(C(=O)Nc2nc(-c3ccco3)c(C(=O)C3CCOCC3)s2)cn1 [Compound (IC)] |  | 88%
